Source: publication PMC3877758 (2013)

By UniProt entry, the sequences of proteins in these tests, tags left out. Where a name states a change or a piece, a line headed by the entry shows the natural chain unless it says otherwise.
UniProt P20459: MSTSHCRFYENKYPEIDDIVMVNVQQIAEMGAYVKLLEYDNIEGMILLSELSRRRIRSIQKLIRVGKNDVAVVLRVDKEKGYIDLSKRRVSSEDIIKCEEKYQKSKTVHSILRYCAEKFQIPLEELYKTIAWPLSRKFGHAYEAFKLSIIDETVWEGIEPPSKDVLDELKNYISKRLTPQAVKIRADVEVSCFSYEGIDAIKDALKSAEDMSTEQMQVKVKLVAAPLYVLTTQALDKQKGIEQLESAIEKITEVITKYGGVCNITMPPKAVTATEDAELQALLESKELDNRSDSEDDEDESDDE

Columns and labels:
[1] = biological target: eIF2 (yeast (Saccharomyces cerevisiae)) (UniProt P20459); experiment: pull-down; GDF assay (competition): 1 µg eIF2 or eIF2αP and 1 µg GST-eIF5 bound to glutathione sepharose beads 2 h at 4°C, washed, then challenged 2 h at 4°C with increasing concentrations of Flag-eIF2B complexes, subunits or eIF5-Flag; 30 mM HEPES, 100 mM KCl, 100 µM GDP, 5 mM DTT, 1 mM NaF, 2.5 mM MgCl2, 0.05% Triton X-100; bound eIF2 by immunoblot; fit y = 1 − [x/(x + IC50)]
[2] = biological target: eIF2 (yeast (Saccharomyces cerevisiae)) (UniProt P20459)
[3] = biological target: eIF2 (yeast (Saccharomyces cerevisiae)) (UniProt P20459); remark: listed apart in the source

IC50 [1]: 0.0151 µM
K1/2 of eIF2B for GDP release from eIF2 prebound to eIF5 (coupled GDI–GDF–GEF assay), as told in the discussion [2]: 47 nM
K1/2 of eIF2B for [3H]GDP release from eIF2 prebound to eIF5 (coupled GDI–GDF–GEF assay; pair displaced: eIF2 and eIF5) [3]: 46 nM
Substance: eIF2B complex (five subunits α, β, γ, δ, ɛ) (from UniProt P14741 1-305; P32502 1-381; P09032 1-578; P12754 1-651; P32501 1-712)
